Target: T1, ATPase family AAA domain-containing protein 2 (Homo sapiens, UniProt Q6PL18)
T1 sequence (Q6PL18 whole entry): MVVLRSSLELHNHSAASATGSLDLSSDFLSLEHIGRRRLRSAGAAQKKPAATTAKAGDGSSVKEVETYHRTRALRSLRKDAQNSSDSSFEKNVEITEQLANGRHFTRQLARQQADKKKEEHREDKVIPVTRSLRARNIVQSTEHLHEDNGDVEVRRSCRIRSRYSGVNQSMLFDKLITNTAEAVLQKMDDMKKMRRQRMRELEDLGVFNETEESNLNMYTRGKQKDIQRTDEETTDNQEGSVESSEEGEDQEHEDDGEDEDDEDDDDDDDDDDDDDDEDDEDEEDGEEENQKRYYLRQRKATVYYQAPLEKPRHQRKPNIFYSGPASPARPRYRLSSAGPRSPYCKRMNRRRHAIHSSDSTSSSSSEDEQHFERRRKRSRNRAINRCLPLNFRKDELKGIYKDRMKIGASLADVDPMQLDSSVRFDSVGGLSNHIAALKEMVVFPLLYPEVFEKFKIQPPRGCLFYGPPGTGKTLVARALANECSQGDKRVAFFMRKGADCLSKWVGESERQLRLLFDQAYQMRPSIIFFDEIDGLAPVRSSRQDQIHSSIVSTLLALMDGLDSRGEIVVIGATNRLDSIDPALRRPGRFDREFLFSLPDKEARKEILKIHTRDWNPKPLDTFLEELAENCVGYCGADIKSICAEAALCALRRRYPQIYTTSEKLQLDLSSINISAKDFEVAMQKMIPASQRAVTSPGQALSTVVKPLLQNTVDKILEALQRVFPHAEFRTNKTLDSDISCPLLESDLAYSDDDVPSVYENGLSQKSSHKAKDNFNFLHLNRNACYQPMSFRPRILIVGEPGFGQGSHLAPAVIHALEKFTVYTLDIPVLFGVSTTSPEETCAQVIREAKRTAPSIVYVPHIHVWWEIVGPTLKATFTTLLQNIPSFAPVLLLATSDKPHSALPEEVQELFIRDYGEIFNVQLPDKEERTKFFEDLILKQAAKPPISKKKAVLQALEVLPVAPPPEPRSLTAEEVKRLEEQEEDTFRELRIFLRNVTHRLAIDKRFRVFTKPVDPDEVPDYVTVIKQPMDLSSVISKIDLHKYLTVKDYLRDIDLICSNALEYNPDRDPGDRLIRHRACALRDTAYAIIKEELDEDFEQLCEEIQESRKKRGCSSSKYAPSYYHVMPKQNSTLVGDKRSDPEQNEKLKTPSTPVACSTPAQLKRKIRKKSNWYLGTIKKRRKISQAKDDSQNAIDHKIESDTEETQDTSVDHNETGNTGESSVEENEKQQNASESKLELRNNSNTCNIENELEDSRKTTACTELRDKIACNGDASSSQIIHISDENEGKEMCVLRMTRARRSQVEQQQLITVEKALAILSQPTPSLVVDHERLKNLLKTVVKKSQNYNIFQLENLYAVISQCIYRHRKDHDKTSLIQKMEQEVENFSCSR
Assay: Binding affinity to N-terminal GST tagged human ATAD2 expressed in Escherichia coli by ITC analysis

- Kd: 90 nM
SMILES: Cc1cncc(-c2ccc(N[C@@H]3CCNC[C@H]3OCC3CCS(=O)(=O)CC3)c3[nH]c(=O)c(C)cc23)c1

From ChEMBL document CHEMBL4665884, “Structural Insights into the Recognition of Mono- and Diacetylated Histones by the ATAD2B Bromodomain” (J Med Chem, 2020)
